From patent publication US8138334B2, “Substituted oxa-diaza-spiro-[5.5]-undecanone derivatives and their use as neurokinin antagonists” (Janssen Pharmaceutica N.V., priority 2005, dated 2012)

Amino acid sequences for entries named in this document (tags omitted).
UniProt P25103, whole entry: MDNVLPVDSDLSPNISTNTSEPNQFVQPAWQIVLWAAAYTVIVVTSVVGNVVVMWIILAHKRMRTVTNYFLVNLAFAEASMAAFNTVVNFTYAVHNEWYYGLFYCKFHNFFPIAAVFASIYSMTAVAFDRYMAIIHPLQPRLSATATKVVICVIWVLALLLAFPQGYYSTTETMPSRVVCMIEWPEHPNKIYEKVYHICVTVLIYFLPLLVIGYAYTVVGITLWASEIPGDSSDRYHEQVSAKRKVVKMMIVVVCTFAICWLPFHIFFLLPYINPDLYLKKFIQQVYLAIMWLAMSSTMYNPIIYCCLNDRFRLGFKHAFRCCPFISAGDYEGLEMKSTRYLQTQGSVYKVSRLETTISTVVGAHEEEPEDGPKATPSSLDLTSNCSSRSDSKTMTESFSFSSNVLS
UniProt P29371, whole entry: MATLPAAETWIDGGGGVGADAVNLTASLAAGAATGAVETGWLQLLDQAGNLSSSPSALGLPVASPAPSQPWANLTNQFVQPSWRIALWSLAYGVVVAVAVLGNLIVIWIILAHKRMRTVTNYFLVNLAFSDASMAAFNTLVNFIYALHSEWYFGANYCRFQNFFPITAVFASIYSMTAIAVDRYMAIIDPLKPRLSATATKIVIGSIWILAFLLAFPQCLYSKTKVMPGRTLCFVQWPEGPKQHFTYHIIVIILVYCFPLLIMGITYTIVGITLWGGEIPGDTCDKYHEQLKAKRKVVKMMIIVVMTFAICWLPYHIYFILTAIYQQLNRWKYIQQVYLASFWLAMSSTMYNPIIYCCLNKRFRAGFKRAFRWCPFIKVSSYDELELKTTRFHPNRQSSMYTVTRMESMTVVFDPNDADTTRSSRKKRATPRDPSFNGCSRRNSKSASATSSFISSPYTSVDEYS
UniProt P21452, whole entry: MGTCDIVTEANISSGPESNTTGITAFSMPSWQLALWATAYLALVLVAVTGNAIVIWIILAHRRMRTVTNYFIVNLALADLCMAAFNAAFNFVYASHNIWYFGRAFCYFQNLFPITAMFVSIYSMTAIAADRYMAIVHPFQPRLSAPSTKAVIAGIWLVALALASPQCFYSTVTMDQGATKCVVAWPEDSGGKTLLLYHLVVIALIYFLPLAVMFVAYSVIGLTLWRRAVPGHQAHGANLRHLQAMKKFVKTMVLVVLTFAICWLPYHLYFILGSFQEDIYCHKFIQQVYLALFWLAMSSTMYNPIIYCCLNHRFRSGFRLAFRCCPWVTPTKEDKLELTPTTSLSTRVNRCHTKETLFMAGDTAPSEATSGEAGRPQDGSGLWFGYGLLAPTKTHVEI

Columns and labels:
Details in all cases: antagonist
[1] = target: NK1 (Homo sapiens, UniProt P25103); assay: Signal transduction (ST), intracellular Ca++ FLIPR, NK1
Protocol: This test evaluates in vitro functional NK1 antagonistic activity. For the measurements of intracellular Ca^++ concentrations the cells were grown on 96-well (black wall/transparent bottom) plates from Costar for 2 days until they reached confluence. The cells were loaded with 2 μM Fluo3 in DMEM containing 0.1% BSA and 2.5 mM probenecid for 1 h at 37° C. They were washed 3× with a Krebs buffer (140 mM NaCl, 1 mM MgCl2×6H2O, 5 mM KCl, 10 mM glucose, 5 mM HEPES; 1.25 mM CaCl2; pH 7.4) containing 2.5 mM probenecid and 0.1% BSA (Ca^++-buffer). The cells were preincubated with a concentration range of antagonists for 20 min at RT and Ca^++-signals after addition of the agonists were measured in a Fluorescence Image Plate Reader (FLIPR from Molecular Devices, Crawley, England). The peak of the Ca^++-transient was considered as the relevant signal and the mean values of corresponding wells were analysed as described below.
The sigmoidal dose response curves were analysed by computerised curve-fitting, using the GraphPad Program. The EC50-value of a compound is the effective dose showing 50% of maximal effect. For mean curves the response to the agonist with the highest potency was normalised to 100%. For antagonist responses the IC50-value was calculated using non-linear regression. […]

[2] = target: NK3 (Homo sapiens, UniProt P29371); assay: Signal transduction (ST), intracellular Ca++ FLIPR, NK3
[3] = target: NK2 (Homo sapiens, UniProt P21452); assay: Signal transduction (ST), intracellular Ca++ FLIPR, NK2

| SMILES | NK1 pIC50 [1] | NK3 pIC50 [2] | NK2 pIC50 [3] |
| --- | --- | --- | --- |
| O=C1OC2(CCN1Cc1ccccc1Cl)CCN([C@H]1CCN(C(=O)c3cc(C(F)(F)F)cc(C(F)(F)F)c3)[C@H](Cc3ccccc3)C1)CC2 | 6.4 | 5.1 | 5.2 |
| O=C(c1ccsc1)N1CCC2(CC1)CCN([C@H]1CCN(C(=O)c3cc(C(F)(F)F)cc(C(F)(F)F)c3)[C@H](Cc3ccccc3)C1)C(=O)O2 | 8.1 | 5.2 |  |
| O=C1OC2(CCN1Cc1ccccc1Cl)CCN([C@@H]1CCN(C(=O)c3cc(C(F)(F)F)cc(C(F)(F)F)c3)[C@H](Cc3ccccc3)C1)CC2 | 6.1 | 5.5 | <5 |
